These results are taken from US20220185822A1, “SELECTIVE LIGANDS OF HUMAN CONSTITUTIVE ANDROSTANE RECEPTOR” (USTAV ORGANICKE CHEMIE A BIOCHEMIE AV CR, V.V.I., priority 2019, published 2022).

The series can be described thus: Metabolic stability in human liver S9 fraction.

For the molecule `NC(=O)c1cc(Cn2cc(-c3c(-c4ccc(Cl)cc4)nc4ccccn34)nn2)ccc1Cl` [Example 110, 2-Chloro-5-((4-(2-(4-chlorophenyl)imidazo[1,2-a]pyridin-3-yl)-1H-1,2,3-triazol-1-yl)methyl)benzamide], the half-life (commonly the time needed for the level to fall by half in the phase considered) at 2 μM is 42 min.
